For this assay, the target named is Aldo-keto reductase family 1 member B1 (Homo sapiens, UniProt P15121). Put plainly: biochemical.

Our source for the IC50 values is ChEMBL document CHEMBL6182912, “Development of Novel Phthalazinone-Triazole Hybrids as Potential Antidiabetic Agents Targeting GLUT4 Translocation in Skeletal Muscle” (J Med Chem, 2025).

The structures appear in SMILES notation.

What is called IC50 is the concentration needed to halve the response being measured. In turn, `O=C(O)Cc1nn(Cc2nc3cc(C(F)(F)F)ccc3s2)c(=O)c2ccccc12` [ZOPOLRESTAT] yielded an IC50 of 1 nM.
